Columns and labels:
[1] = molecular target: T1, baculovirus-derived recombinant GST-fusion HCV E2 protein (GST-E2) (Hepatitis C virus genotype 1a, UniProt P27958); assay: Coprecipitation with GST-E2 using Glutathione beads, Western blot with anti-IFN-α antibody; assay type: binding; conditions: culture supernatant of COS-1 cells, 4° C.; FIG. 20
T1 construct: purchased Immuno Diagnostics; host or cells: baculovirus expression system
Method: There was evaluated the binding of IFN-α2b or HCV-binding type IFNs which had been transiently expressed in COS-1 cells to the baculovirus-derived recombinant GST-fusion HCV E2 protein (hereinafter referred to as GST-E2; manufactured by Immuno Diagnostics) by coprecipitation using Glutathione beads. Five microliters of GST-E2 (1 μg/μl) was mixed with 400 μl of the culture supernatant of COS-1 cells containing transiently expressed IFN-α2b or HCV-binding type IFNs, and were incubated at 4° C. for 1 hour. Glutathione Sepharose 4B (Amersham Pharmacia) which had been incubated in buffer TBS-X [composition: 50 mM Tris-HCl (pH 7.5), 150 mM NaCl, 0.1% Triton X-100] containing 3% BSA for 30 minutes was added to a mixture of the culture supernatant of COS-1 cells and GST-E2, and the aliquots were incubated overnight at 4° C. After centrifugation, the supernatants (non-binding fraction) were collected, and the precipitated Glutathione beads were washed five times with the above-mentioned TBS-X. A 2× sample buffer was added to a bound fraction Glutathione beads, and the aliquots were treated at 100° C. for 5 minutes. Thereafter, the supernatants obtained by centrifugation were subjected to Western blot analysis using an anti-IFN-α antibody. Similarly, the supernatants of the non-binding fraction were subjected to Western blot analysis. […]

Amino acid sequences for entries named in this document (tags omitted). Residues count along the entry.
UniProt P27958, 384-746: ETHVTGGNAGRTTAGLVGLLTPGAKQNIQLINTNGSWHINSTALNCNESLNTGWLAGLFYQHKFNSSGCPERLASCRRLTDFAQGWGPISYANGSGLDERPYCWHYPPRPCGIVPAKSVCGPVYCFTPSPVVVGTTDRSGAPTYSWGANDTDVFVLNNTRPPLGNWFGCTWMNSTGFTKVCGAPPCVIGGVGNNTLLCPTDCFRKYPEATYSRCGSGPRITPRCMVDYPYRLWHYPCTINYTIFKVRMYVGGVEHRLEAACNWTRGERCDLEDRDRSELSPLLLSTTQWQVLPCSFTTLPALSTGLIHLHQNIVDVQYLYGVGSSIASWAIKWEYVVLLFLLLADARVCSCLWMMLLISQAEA

[2] = system: Sindbis virus; assay: Anti-virus activity, Sindbis virus-FL cells, Crystal Violet method; assay type: cell-based; conditions: culture supernatant of COS-1 cells three days after transfection; FIG. 18 and 19
Method: The anti-virus activities of IFN-α2b and HCV-binding type IFNs which had been prepared from transiently expressed in COS-1 cells were assayed by an assay system using the system for evaluating Sindbis virus-FL cells. Each of 200 IU/mL human interferon α2b (INTRON A, manufactured by Sherring-Plough/YAMANOUCHI PHARMACEUTICAL CO., LTD.) or the culture supernatants of COS-1 cells resulting from transient expression of IFN-α2b and HCV-binding type IFNs was two-fold serial dilution with a medium containing fetal bovine serum where 1000-fold dilution was regarded as a dilution fold 1. The resulting dilution was cultured together with the FL cells.
On the next day, Sindbis virus was added to the resulting culture, and the mixture was cultured for 2 days. Thereafter, the absorbance of the resulting culture at 595 nm was determined by Crystal Violet method. The determination was taken at n=2. In addition, at the same time, the FL cells alone were cultured as cell control, and the untreated FL cells added with Sindbis virus were cultured as virus control.

## IFN-α2b: human interferon-α2b transiently expressed in COS-1 cells from vector pCIA
[1]
  binding to GST-E2 (coprecipitation): does not bind to GST-E2
[2]
  anti-virus activity: have the anti-virus activity
